# Laboratory results reported in PubChem BioAssay AID504937 (National Center for Advancing Translational Sciences (NCATS), 2011).
# Chains of the proteins cited; added tags and fusions are not shown. Residues count along the entry.
# UniProt P17405, 47-631 limits assumed: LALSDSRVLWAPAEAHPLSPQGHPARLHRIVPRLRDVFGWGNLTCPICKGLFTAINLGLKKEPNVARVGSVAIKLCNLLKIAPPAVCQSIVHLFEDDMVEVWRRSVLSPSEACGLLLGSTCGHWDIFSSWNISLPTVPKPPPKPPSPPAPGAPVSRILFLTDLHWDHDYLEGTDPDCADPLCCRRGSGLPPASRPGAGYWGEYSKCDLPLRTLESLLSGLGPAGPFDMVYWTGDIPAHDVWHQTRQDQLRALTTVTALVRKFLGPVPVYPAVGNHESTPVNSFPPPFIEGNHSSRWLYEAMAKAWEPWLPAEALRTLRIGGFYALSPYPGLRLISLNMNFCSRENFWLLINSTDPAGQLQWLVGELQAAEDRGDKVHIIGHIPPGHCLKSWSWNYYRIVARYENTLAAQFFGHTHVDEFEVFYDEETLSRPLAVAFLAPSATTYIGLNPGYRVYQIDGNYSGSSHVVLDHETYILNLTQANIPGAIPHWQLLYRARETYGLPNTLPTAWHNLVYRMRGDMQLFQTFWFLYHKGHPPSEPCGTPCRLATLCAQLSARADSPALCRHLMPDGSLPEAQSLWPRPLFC
# The entries are a selection whose mix differs from that of the whole data set. Some salts or complexes appear as unconnected parts, following the source record. Calls of active or inactive are those of the source. Calls follow the shape of the dose curve; as a rule, active = well fitted inhibition curve with a large enough effect; inconclusive = small, poorly fitted or top-dose-only effect; inactive = no such curve, though single readings can be large or run the other way.
# Target: Sphingomyelin phosphodiesterase (Homo sapiens) (UniProt P17405)
# Test: Inhibitors of Secretory Acid Sphingomyelinase (S-ASM): qHTS
# Details: placental ASM, HMU-PC fluorogenic substrate (series up to 57.5 µM), 60 min; at 57.5 µM (top of the series)
row,SMILES,"activity change, negative = inhibition"
1,CN1CCN(CCOC(=O)C(O)(c2ccccc2)c2ccccc2)CC1,inactive: 3.23%
2,COc1ccc(NC2CCN(C(=O)OC(C)(C)C)CC2)cc1,inactive: -0.939%
3,COc1cc(C(=O)NCC2(N3CCCCC3)CCCCC2)ccc1OC(F)F,inactive: -3.35%
4,O=C(NCC1(N2CCOCC2)CCCCC1)c1cc(=O)[nH]c2ccccc12,inactive: -0.128%
5,O=C(NCC1(N2CCCCC2)CCCCC1)c1cccc(C(F)(F)F)c1,inactive: 1.14%
6,O=[N+]([O-])c1cc([N+](=O)[O-])c(NCC2CCS(=O)(=O)C2)c([N+](=O)[O-])c1 (stereo unspecified),inactive: -5.61%
7,O=C(NCC1(N2CCCCC2)CCCCC1)c1cccc([N+](=O)[O-])c1,inactive: -0.349%
8,CSc1ccc(C(=O)NCC2(N3CCOCC3)CCCCC2)cc1,inactive: 5.32%
9,N#CC1(Nc2ccccc2)CCN(CCc2ccccc2)CC1,inactive: 0.655%
10,CCN1CCC(Nc2ccc(Cl)cc2)CC1,inactive: -2.98%
11,O=C(NCC1(N2CCCCC2)CCCCC1)c1ccc(OC(F)F)cc1,inactive: 2.34%
12,CCCOc1ccc(C(=O)NCC2(N(C)C)CCCCC2)cc1OC,inactive: -1.49%
13,O=C(NCC1(N2CCCCC2)CCCCC1)c1cncc(Br)c1,inactive: -1.12%
14,COc1ccc2c(c1O)-c1c(O)c(OC)cc3c1[C@H](C2)[N+](C)(C)CC3.O=[N+]([O-])c1cc([N+](=O)[O-])c([O-])c([N+](=O)[O-])c1[O-],inactive: -5.94%
15,CN1CCC(Nc2cccc(F)c2)CC1,inactive: 2.67%
16,O=C(OC1CN2CCC1CC2)c1ccc([N+](=O)[O-])cc1 (stereo unspecified),inactive: -0.638%
17,O=C(NCC1(N2CCOCC2)CCCCC1)c1cc(F)c(F)cc1Cl,inactive: 0.267%
18,COc1cc(OC)c(C(=O)NCC2(N(C)C)CCCCC2)cc1OC,inactive: -0.477%
19,O=[N+]([O-])c1cc([N+](=O)[O-])c(OC2CCCCC2O)c([N+](=O)[O-])c1 (stereo unspecified),inactive: -1.19%
20,CN(C)c1cccc(C(=O)NCC2(N3CCCCC3)CCCCC2)c1,inactive: 43.3%
21,COc1ccc(CN(CCCl)CCCl)cc1Cl,inactive: -0.595%

row,SMILES,"activity change, negative = inhibition"
1,CC(C)c1ccc(NC2CCN(C(=O)OC(C)(C)C)CC2)cc1,inactive: -2.54%
2,CCOC(=O)N1CCC(Nc2ccc(OC)cc2)CC1,inactive: 6.17%
3,O=C1C(O)=C([N+](=O)[O-])C(=O)C(O)=C1[N+](=O)[O-],inactive: -1.86%
4,COc1ccc(Cl)cc1C(=O)NCC1(N2CCOCC2)CCCCC1,inactive: 3.35%
5,O=C(OC1CN2CCC1CC2)C1c2ccccc2Oc2ccccc21 (stereo unspecified),inactive: 16.6%
6,O=C(NCC1(N2CCCCC2)CCCCC1)c1ccc(Cl)s1,inactive: 6.94%
7,N#CC1(Nc2ccccc2)CCN(Cc2ccccc2)CC1,inactive: 4.99%
8,O=C(NCC1(N2CCOCC2)CCCCC1)c1cc2ccccc2o1,inactive: 2.78%
9,Cc1cc(C)cc(N(C(=O)c2ccccc2)C2CCN(C(=O)OC(C)(C)C)CC2)c1,inactive: -0.716%
10,O=C(NCC1(N2CCCCC2)CCCCC1)c1ccc(Cl)nc1,inactive: 5.26%
11,Cc1cccc(NC2(C#N)CCN(Cc3ccccc3)CC2)c1,inactive: -0.331%
12,CSc1ccccc1C(=O)NCC1(N2CCCCC2)CCCCC1,inactive: 4.02%
13,O=C(NCC1(N2CCCCC2)CCCCC1)c1cccs1,inactive: 0.244%
14,O=C(NCC1(N2CCCCC2)CCCCC1)c1ccc(=O)[nH]c1,inactive: -0.786%
15,COc1ccc(C(=O)NCC2(N3CCCCC3)CCCCC2)c(OC)c1OC,inactive: 5.96%
16,CC(C)(C)OC(=O)N1CCC(N(C(=O)c2ccccc2)c2ccc(F)cc2)CC1,inactive: -0.627%
17,COc1ccc(C(=O)NCC2(N3CCCCC3)CCCCC2)cc1,inactive: 7.45%
18,COc1cc(C(=O)NCC2(N(C)C)CCCCC2)ccc1OC(F)F,inactive: 3.59%
19,CCOC(=O)N1CCC(Nc2cccc(C)c2)CC1,inactive: 1.6%
20,COc1ccc(NC2CCN(CCc3ccccc3)CC2)c(OC)c1,inactive: 0.245%
21,CCOC(=O)N1CCC(Nc2ccc(F)cc2)CC1,inactive: 3.79%

row,SMILES,"activity change, negative = inhibition"
1,O=C(NCC1(N2CCCCC2)CCCCC1)c1ccc(F)cc1,inactive: 0.505%
2,O=P1(N(CCCl)CCCl)SCCCS1,inactive: 0.36%
3,CCCCOc1ccc(C(=O)NCC2(N3CCOCC3)CCCCC2)cc1,inactive: -1.52%
4,CCOc1ccc(C)cc1CN(CCCl)CCCl,inactive: 1.54%
5,O=C1CCN(Cc2ccccc2)CC1,inactive: 3.05%
6,Cn1c(=O)[nH]cc(N(CCCl)CCCl)c1=O,inactive: 3.95%
7,CN(C)c1ccc(C(=O)NCC2(N3CCCCC3)CCCCC2)cc1,inactive: 3.53%
8,O=C(NCC1(N2CCCCC2)CCCCC1)c1ccco1,inactive: -0.803%
9,CCN1CCC(Nc2cccc(F)c2)CC1,inactive: 5.42%
10,Cc1ccccc1NC1(C#N)CCN(Cc2ccccc2)CC1,inactive: -3.01%
11,Cc1ccc(NC2(C#N)CCN(Cc3ccccc3)CC2)cc1,inactive: 1.39%
12,Fc1ccccc1NC1CCN(Cc2ccccc2)CC1,inactive: 3.54%
13,Cc1ccc(C(=O)NCC2(N3CCCCC3)CCCCC2)o1,inactive: 0.462%
14,COc1cc(OC)cc(C(=O)NCC2(N3CCCCC3)CCCCC2)c1,inactive: 6.23%
15,CC(=O)N(c1ccccc1)C1CCNCC1,inactive: 3.91%
16,CN1CCC(Nc2ccc(Cl)cc2)CC1,inactive: 0%
17,CCC(CO)(C(=O)OC1CN2CCC1CC2)c1ccccc1 (stereo unspecified),inactive: 4.71%
18,COc1cc(OC)cc(C(=O)NCC2(N3CCOCC3)CCCCC2)c1,inactive: -0.105%
19,COc1cccc(C(=O)N(c2cc(C)cc(C)c2)C2CCN(C(=O)OC(C)(C)C)CC2)c1,inactive: 0.765%
20,CCCOc1ccc(C(=O)NCC2(N(C)C)CCCCC2)cc1,inactive: 0.168%
21,O=C(O)C1(Nc2ccccc2)CCN(Cc2ccccc2)CC1,inactive: 0.0501%

row,SMILES,"activity change, negative = inhibition"
1,CC(C)(C)OC(=O)N1CCC(Nc2ccccc2)CC1,inactive: 3.74%
2,CN1CCC(Nc2ccc(F)c(Cl)c2)CC1,inactive: -4.06%
3,CCOc1ncccc1C(=O)NCC1(N2CCOCC2)CCCCC1,inactive: 0.24%
4,O=C(O)c1cccc(Nc2c([N+](=O)[O-])cc([N+](=O)[O-])cc2[N+](=O)[O-])c1,inactive: -2.63%
5,O=C(OC1CN2CCC1CC2)C1c2ccccc2C=Cc2ccccc21 (stereo unspecified),inactive: 3.51%
6,CCc1cc(C(=O)NCC2(N3CCCCC3)CCCCC2)sc1C,inactive: 4.8%
7,N/C(=N\O)c1c(N)no[n+]1[O-],inactive: 1.51%
8,CCOC(=O)N1CCC(Nc2ccc(C)cc2)CC1,inactive: 7.26%
9,COc1ccc(C(=O)NCC2(N3CCOCC3)CCCCC2)cc1OC,inactive: -2.87%
10,O=C(NCC1(N2CCOCC2)CCCCC1)c1cc(Br)ccc1Cl,inactive: 6.4%
11,COc1cc(C(=O)NCC2(N3CCOCC3)CCCCC2)cc(OC)c1C,inactive: 0.494%
12,CCCN1CCC(Nc2cc(OC)cc(OC)c2)CC1,inactive: -2.01%
13,Cc1cc(N(CCCl)CCCl)ccc1C=O,inactive: -4.03%
14,c1ccc(CN2CCC(Nc3ccccc3)CC2)cc1,inactive: 1.51%
15,CN(C)C1(CNC(=O)c2cccc(C#N)c2)CCCCC1,inactive: -1.05%
16,CCOC(=O)C(CC)C1=NC(C)(C)Cc2ccccc21.O=[N+]([O-])c1cc([N+](=O)[O-])c(O)c([N+](=O)[O-])c1 (stereo unspecified),inactive: -1.82%
17,CC(C)(C)OC(=O)N1CCC(N(C(=O)c2ccccc2)c2ccc(Cl)cc2)CC1,inactive: 1.3%
18,N#Cc1ccc(C(=O)NCC2(N3CCCCC3)CCCCC2)cc1,inactive: -1.02%
